Measurements as given in paper PMC10208276, “A Very Long-acting Exatecan and Its Synergism with DNA Damage Response Inhibitors” (Cancer Research Communications, 2023).

Tests used:
[1] = mouse
[2] = single intraperitoneal doses of 10 and 15 μmol/kg

**Q.** Which “kOH of Exa release” value (37°C, between pH 7.4 and 9.0, hydroxide-catalyzed) does the source give for “PEG40kDa-[exatecan]4 (Mod = 4-Cl-C6H4-SO2-) [3A]” here?
**A.** 0.012 h⁻¹

**Q.** What about the “Calc. t1/2 at pH 7.5, average” value (Ave. ± SE of the three pH values) of the same substance?
**A.** Ave. 59 ± 7 (SE) h

**Q.** What about the “Calc. t1/2 at pH 7.5” value (calculated from value observed at pH 7.4) of the same substance?
**A.** 57 h

**Q.** What about the “Calc. t1/2 at pH 7.5” value (calculated from value observed at pH 8.4) of the same substance?
**A.** 53 h

**Q.** What about the “Calc. t1/2 at pH 7.5” value (calculated from value observed at pH 9.0) of the same substance?
**A.** 67 h

**Q.** And the conjugate remaining (pH 5.0, 10 days)?
**A.** 99%

**Q.** And the conjugate remaining (pH 5.1, 37° C, 11 d)?
**A.** >99% remaining at 11 d

**Q.** And the “Obsd t1/2” value (pH 7.4, 37° C)?
**A.** 51.6 h

**Q.** And the “Obsd t1/2” value (pH 8.4, 37° C)?
**A.** 4.87 h

**Q.** And the “Obsd t1/2” value (pH 9.0, 37° C)?
**A.** 1.72 h

**Q.** What about the “concentration of released free Exa relative to prodrug 3A, fold lower” value [1] of the same substance?
**A.** ≥ 1,000 fold

**Q.** And the “Released Exa C max/dose” value ([1]; 7.5 μmol/kg conjugate, Intraperitoneal, analyte released Exa)?
**A.** 0.004 ± 0.001 kg/L

**Q.** And the “AUC∞” value ([1]; 7.5 μmol/kg, Intraperitoneal)?
**A.** 1,650 ± 116 μmol/L•hours

**Q.** What about the “AUC∞/dose” value ([1]; 7.5 μmol/kg, Intraperitoneal) of the same substance?
**A.** 220 ± 16 kg·h/L

**Q.** What about the C0 ([1]; 7.5 μmol/kg, Intraperitoneal) of the same substance?
**A.** 193 ± 21 µM

**Q.** And the “C0, μmol/L/dose” value ([1]; 7.5 μmol/kg, Intraperitoneal)?
**A.** 25 ± 3 kg/L

**Q.** What about the C max/dose ([1]; 7.5 μmol/kg, Intraperitoneal) of the same substance?
**A.** 14.7 ± 1.1 kg/L

**Q.** What about the Cmax ([1]; 7.5 μmol/kg, Intraperitoneal) of the same substance?
**A.** 110 ± 4 µM

**Q.** What about the “t1/2,α” value ([1]; 7.5 μmol/kg, Intraperitoneal) of the same substance?
**A.** 2.6 ± 0.3 h

**Q.** What about the “t1/2,β (apparent elimination / circulating half-life)” value ([1]; 7.5 μmol/kg, Intraperitoneal) of the same substance?
**A.** approximately 12 hours

**Q.** What about the tmax ([1]; 7.5 μmol/kg, Intraperitoneal) of the same substance?
**A.** 7 h

**Q.** What about the “t1/2 drug release (release of Exa in vivo)” value ([1]; 7.5 μmol/kg, Intraperitoneal, from k1 = k3 − kβ, listed as PEG-Exa (3A)) of the same substance?
**A.** 40.8 ± 9.1 h

**Q.** What about the “t1/2,β (apparent elimination / circulating half-life)” value ([1]; 7.5 μmol/kg, Intraperitoneal, listed as PEG-Exa) of the same substance?
**A.** 12 h

**Q.** And the “t1/2,β (apparent elimination / circulating half-life)” value ([1]; 7.5 μmol/kg, Intraperitoneal, listed as PEG-Exa (3A))?
**A.** 12.2 ± 0.5 h

**Q.** What about the Cmax ([1]; read-out: Released Exa C max, 7.5 μmol/kg conjugate, Intraperitoneal, analyte released Exa) of the same substance?
**A.** 0.028 ± 0.009 µM

**Q.** And the “weight loss of hosts” value [2]?
**A.** without weight loss

Where two headings read alike, the source gives them in different places.
